The text below walks through data of PubChem BioAssay AID492953 (The Scripps Research Institute Molecular Screening Center, 2010).

Chains of the proteins cited; added tags and fusions are not shown.
UniProt P68402, whole entry: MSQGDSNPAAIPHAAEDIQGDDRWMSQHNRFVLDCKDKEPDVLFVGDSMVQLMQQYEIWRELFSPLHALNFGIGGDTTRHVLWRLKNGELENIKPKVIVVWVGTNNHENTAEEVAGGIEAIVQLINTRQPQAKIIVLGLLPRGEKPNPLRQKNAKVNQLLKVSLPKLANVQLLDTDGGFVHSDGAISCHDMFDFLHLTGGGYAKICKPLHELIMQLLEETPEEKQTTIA

The list shows a part of the results, in another mix than the full data. The source made the active and inactive calls.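 The calls were made as follows: active = inhibition above the mean of all tested compounds plus 3 SD (cut at about 24% in these data); inactive = the rest.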

This experiment addresses Platelet-activating factor acetylhydrolase IB subunit alpha2 (Homo sapiens) (UniProt P68402). The experiment in a line: inhibition of PAF acetylhydrolase 1b subunit 2 – biochemical, fluorescence polarization, human, primary screen (AID 492953).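 Also: 0% = enzyme with DMSO and 100% = wells lacking PAFAH1B2.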 As to conditions: recombinant PAFAH1B2, FP-rhodamine activity probe, at 3.39 µM, stronger effect = higher value.
As to `Cc1ccc(NC2(C#N)CCN(Cc3ccccc3)CC2)cc1`, the inhibition – broadly, the change of the read-out against control, counted positive when it falls – is inactive: 0.38%.

With `Fc1ccccc1NC1CCN(Cc2ccccc2)CC1`, the inhibition was inactive: 0.55%.

On to `Cc1ccc(C(=O)NCC2(N3CCCCC3)CCCCC2)o1`, for which the inhibition is inactive: -1.66%.

Consider `COc1cc(OC)cc(C(=O)NCC2(N3CCCCC3)CCCCC2)c1`, for which the inhibition is inactive: 2.18%.

For the molecule `CC(=O)N(c1ccccc1)C1CCNCC1`, the inhibition is inactive: -5.53%.

In the case of `CN(C)c1ccc(C(=O)NCC2(N3CCCCC3)CCCCC2)cc1`, the inhibition was inactive: -0.22%.

For `Cn1c(=O)[nH]cc(N(CCCl)CCCl)c1=O`, the inhibition was inactive: 3.41%.

On to `O=C(NCC1(N2CCCCC2)CCCCC1)c1ccco1`, for which the inhibition is inactive: 1.93%.

For the molecule `CCN1CCC(Nc2cccc(F)c2)CC1`, the inhibition was inactive: -2.23%.

For the molecule `Cc1ccccc1NC1(C#N)CCN(Cc2ccccc2)CC1`, the inhibition was inactive: -0.32%.

In the case of `CCCOc1ccc(C(=O)NCC2(N(C)C)CCCCC2)cc1`, the inhibition is inactive: 7.99%.

As to `O=C(O)C1(Nc2ccccc2)CCN(Cc2ccccc2)CC1`, the inhibition is inactive: 1.88%.

With `CC(C)(C)OC(=O)N1CCC(Nc2ccccc2)CC1`, the inhibition is inactive: -2.66%.

Take `CN1CCC(Nc2ccc(F)c(Cl)c2)CC1`: the inhibition was inactive: -1.6%.

As for `CCOc1ncccc1C(=O)NCC1(N2CCOCC2)CCCCC1`, the inhibition was inactive: 2.72%.

Take `CN1CCC(Nc2ccc(Cl)cc2)CC1`: the inhibition was inactive: 1.11%.

For `CCC(CO)(C(=O)OC1CN2CCC1CC2)c1ccccc1` (centres undefined), the inhibition was inactive: -2.06%.

With `COc1cccc(C(=O)N(c2cc(C)cc(C)c2)C2CCN(C(=O)OC(C)(C)C)CC2)c1`, the inhibition was inactive: 2.03%.

`COc1cc(OC)cc(C(=O)NCC2(N3CCOCC3)CCCCC2)c1`: the inhibition is inactive: 5.47%.

`COc1ccc(C(=O)NCC2(N3CCOCC3)CCCCC2)cc1OC`: the inhibition is inactive: 7.2%.

Consider `O=C(NCC1(N2CCOCC2)CCCCC1)c1cc(Br)ccc1Cl`, for which the inhibition was inactive: 5.27%.

As to `COc1cc(C(=O)NCC2(N3CCOCC3)CCCCC2)cc(OC)c1C`, the inhibition is inactive: 7.11%.

Take `O=C(OC1CN2CCC1CC2)C1c2ccccc2C=Cc2ccccc21` (centres undefined): the inhibition is inactive: 0.87%.

With `N/C(=N\O)c1c(N)no[n+]1[O-]`, the inhibition is inactive: 1.67%.

For `CCOC(=O)N1CCC(Nc2ccc(C)cc2)CC1`, the inhibition was inactive: 7.24%.

With `CC(C)(C)OC(=O)N1CCC(N(C(=O)c2ccccc2)c2ccc(Cl)cc2)CC1`, the inhibition was inactive: 0.97%.

On to `N#Cc1ccc(C(=O)NCC2(N3CCCCC3)CCCCC2)cc1`, for which the inhibition was inactive: 0.23%.

For `Cc1cc(N(CCCl)CCCl)ccc1C=O`, the inhibition is inactive: 9.25%.

For `CCCN1CCC(Nc2cc(OC)cc(OC)c2)CC1`, the inhibition was inactive: 1.48%.

For `c1ccc(CN2CCC(Nc3ccccc3)CC2)cc1`, the inhibition is inactive: 1.6%.

For `CN(C)C1(CNC(=O)c2cccc(C#N)c2)CCCCC1`, the inhibition was inactive: 4.88%.

With `O=C(NCC1(N2CCCCC2)CCCCC1)c1cccc([N+](=O)[O-])c1`, the inhibition was inactive: 6.5%.

As for `CSc1ccc(C(=O)NCC2(N3CCOCC3)CCCCC2)cc1`, the inhibition is inactive: -1.25%.

Regarding `N#CC1(Nc2ccccc2)CCN(CCc2ccccc2)CC1`, the inhibition is inactive: 5.76%.

Take `CCN1CCC(Nc2ccc(Cl)cc2)CC1`: the inhibition is inactive: 2%.

On to `O=C(NCC1(N2CCCCC2)CCCCC1)c1ccc(OC(F)F)cc1`, for which the inhibition is inactive: 2.63%.

For the molecule `CC(C)c1ccc(C(=O)NCC2(N3CCOCC3)CCCCC2)cc1`, the inhibition was inactive: 3.64%.

In the case of `COc1ccc(NC2CCN(C(=O)OC(C)(C)C)CC2)cc1`, the inhibition was inactive: 3.17%.

As for `CN1CCN(CCOC(=O)C(O)(c2ccccc2)c2ccccc2)CC1`, the inhibition was inactive: 5.24%.

On to `O=C(NCC1(N2CCOCC2)CCCCC1)c1cc(=O)[nH]c2ccccc12`, for which the inhibition was inactive: 5.62%.

Consider `COc1cc(C(=O)NCC2(N3CCCCC3)CCCCC2)ccc1OC(F)F`, for which the inhibition is inactive: -3.1%.

On to `O=C(NCC1(N2CCCCC2)CCCCC1)c1cccc(C(F)(F)F)c1`, for which the inhibition is inactive: 6.73%.

Consider `O=C(NCC1(N2CCOCC2)CCCCC1)c1cc(F)c(F)cc1Cl`, for which the inhibition was inactive: 9.13%.

Take `COc1cc(OC)c(C(=O)NCC2(N(C)C)CCCCC2)cc1OC`: the inhibition was inactive: -1.04%.

As for `CN(C)c1cccc(C(=O)NCC2(N3CCCCC3)CCCCC2)c1`, the inhibition is inactive: -2.17%.

As to `COc1ccc(CN(CCCl)CCCl)cc1Cl`, the inhibition was inactive: 1.29%.

On to `CC(C)c1ccc(NC2CCN(C(=O)OC(C)(C)C)CC2)cc1`, for which the inhibition is inactive: 3.07%.

As to `CCCOc1ccc(C(=O)NCC2(N(C)C)CCCCC2)cc1OC`, the inhibition was inactive: -1.07%.

Regarding `CN1CCC(Nc2cccc(F)c2)CC1`, the inhibition was inactive: 7.88%.

On to `O=C(NCC1(N2CCCCC2)CCCCC1)c1cncc(Br)c1`, for which the inhibition is inactive: 1.16%.

`Cc1cccc(NC2(C#N)CCN(Cc3ccccc3)CC2)c1`: the inhibition was inactive: 1.4%.

As for `CSc1ccccc1C(=O)NCC1(N2CCCCC2)CCCCC1`, the inhibition is inactive: 3.18%.

In the case of `O=C(NCC1(N2CCCCC2)CCCCC1)c1cccs1`, the inhibition is inactive: -2.77%.

Consider `O=C(NCC1(N2CCCCC2)CCCCC1)c1ccc(=O)[nH]c1`, for which the inhibition was inactive: 7.73%.

On to `CC(C)(C)OC(=O)N1CCC(N(C(=O)c2ccccc2)c2ccc(F)cc2)CC1`, for which the inhibition was inactive: 3.59%.

As for `COc1ccc(C(=O)NCC2(N3CCCCC3)CCCCC2)c(OC)c1OC`, the inhibition was inactive: 8.32%.

For `COc1ccc(C(=O)NCC2(N3CCCCC3)CCCCC2)cc1`, the inhibition was inactive: 4.28%.

Consider `CCOC(=O)N1CCC(Nc2ccc(OC)cc2)CC1`, for which the inhibition is inactive: 3.86%.

For `COc1ccc(Cl)cc1C(=O)NCC1(N2CCOCC2)CCCCC1`, the inhibition was inactive: -2.13%.

As to `O=C(NCC1(N2CCCCC2)CCCCC1)c1ccc(Cl)s1`, the inhibition was inactive: 6.87%.

Turning to `N#CC1(Nc2ccccc2)CCN(Cc2ccccc2)CC1`, the inhibition was inactive: 8.08%.

Turning to `O=C(OC1CN2CCC1CC2)C1c2ccccc2Oc2ccccc21` (centres undefined), the inhibition is inactive: 1.45%.

As for `O=C(NCC1(N2CCOCC2)CCCCC1)c1cc2ccccc2o1`, the inhibition was inactive: 3.88%.

Take `Cc1cc(C)cc(N(C(=O)c2ccccc2)C2CCN(C(=O)OC(C)(C)C)CC2)c1`: the inhibition was inactive: 4.07%.

With `O=C(NCC1(N2CCCCC2)CCCCC1)c1ccc(Cl)nc1`, the inhibition was inactive: 6.66%.

Turning to `CCOC(=O)N1CCC(Nc2ccc(F)cc2)CC1`, the inhibition was inactive: -0.94%.

Consider `COc1ccc(NC2CCN(CCc3ccccc3)CC2)c(OC)c1`, for which the inhibition was inactive: 4.96%.

On to `CCCCOc1ccc(C(=O)NCC2(N3CCOCC3)CCCCC2)cc1`, for which the inhibition was inactive: -1.06%.

As for `O=P1(N(CCCl)CCCl)SCCCS1`, the inhibition is inactive: 0.91%.

On to `O=C(NCC1(N2CCCCC2)CCCCC1)c1ccc(F)cc1`, for which the inhibition was inactive: 3.5%.

Take `CCOc1ccc(C)cc1CN(CCCl)CCCl`: the inhibition was inactive: 4.05%.

Regarding `O=C1CCN(Cc2ccccc2)CC1`, the inhibition was inactive: -7.27%.

Consider `CCOC(=O)N1CCC(Nc2cccc(C)c2)CC1`, for which the inhibition is inactive: 0.89%.

Take `COc1cc(C(=O)NCC2(N(C)C)CCCCC2)ccc1OC(F)F`: the inhibition is inactive: 0.01%.
